# Results published in EP2150620B1, “Method for preparing C-6 phosphorylated D-aldohexoses and C-6 phosphorylated D-aldohexose derivatives, and new C-6 phosphorylated D-aldohexose derivatives” (Libragen, priority 2007, dated 2008).
# Tested on: polyphosphate-glucose phosphotransferase activity
# Assay: C-6 phosphorylation of acceptors with polyphosphate by an enzymatic extract, detected by thin layer chromatography (Examples 1 and 2)
# Conditions: complete reaction medium; acceptor 150 mM; sodium hexametaphosphate 7.5 mM; 0.26 U/ml; 24 hours at 30°C; analysis conditions A
row,SMILES,Result (24 hours incubation): formation of the 6-phosphate of the acceptor
1,CCS[C@@H]1O[C@H](CO)[C@@H](O)[C@H](O)[C@H]1O [Ethyl 1-thio-β-D-glucoside],A new substance is formed exclusively in the complete reaction medium. It is 1-thio-β-D-ethyl 1-thio-glucose-6-phosphate.
2,O=S(=O)(O)N[C@H]1C(O)O[C@H](CO)[C@@H](O)[C@@H]1O (stereo partly drawn) [D-glucosamine-2-sulfate],A new substance is formed exclusively in the complete reaction medium. It is D-glucosamine-2-sulfate-6-phosphate.
3,CO[C@@H]([C@H](O)[C@H](O)CO)[C@@H](O)C=O [3-O-methyl-D-glucose],A new substance is formed exclusively in the complete reaction medium. It is 3-0-methyl-D-glucose-6-phosphate.
4,CC(=O)N[C@H]1C(O)O[C@H](CO)[C@@H](O)[C@@H]1O (stereo partly drawn) [N-acetyl-D-glucosamine],A new substance is formed exclusively in the complete reaction medium. It is N-acetyl-D-glucosamine-6-phosphate.
5,O=CC[C@@H](O)[C@H](O)[C@H](O)CO [2-deoxy-D-glucose],"A new substance is formed exclusively in the complete reaction medium. It is 2-deoxy-D-glucose-6-phosphate. In addition, the use of a commercial preparation (Sigma-Aldrich D8875) confirmed the presence of 2-deoxy-D-glucose-6-phosphate."
6,O=C[C@H](F)[C@@H](O)[C@H](O)[C@H](O)CO [2-deoxy-2-fluoro-D-glucose],A new substance is formed exclusively in the complete reaction medium. It is 2-deoxy-2-fluoro-D-glucose-6-phosphate.
7,"OC[C@H]1OC[C@H](O)[C@@H](O)[C@@H]1O [1,5-anhydro-D-sorbitol]","A new substance is formed exclusively in the complete reaction medium. It is 1,5-anhydro-D-sorbitol-6-phosphate."
8,"N[C@H](C=O)[C@@H](O)[C@H](O)[C@H](O)CO [D-mannosamine, 2-amino-2-deoxy-D-mannose]",A new substance is formed exclusively in the complete reaction medium. It is D-mannosamine-6-phosphate.
9,O=C[C@@H](O)[C@@H](O)[C@H](O)[C@H](O)CO [D-mannose],A new substance is formed exclusively in the complete reaction medium. It is D-mannose-6-phosphate.

# Same assay, conditions: complete reaction medium; acceptor 150 mM; sodium hexametaphosphate 7.5 mM; 0.26 U/ml; 24 hours at 30°C; analysis conditions B
row,SMILES,Result (24 hours incubation): formation of the 6-phosphate of the acceptor
1,OC[C@H]1O[C@@H](S)[C@H](O)[C@@H](O)[C@@H]1O [1-thio-β-D-glucose],A new substance is formed exclusively in the complete reaction medium. It is 1-thio-β-D-glucose-6-phosphate.
2,O=C[C@H](O)[C@@H](O)[C@H](O)[C@H](S)CO [5-thio-D-glucose],A new substance is formed exclusively in the complete reaction medium. It is 5-thio-D-glucose-6-phosphate.
3,O=C[C@H](O)[C@H](O)[C@H](O)[C@H](O)CO [D-allose],A new substance is formed exclusively in the complete reaction medium. It is D-allose-6-phosphate.
4,O=C[C@@H](O)[C@@H](O)[C@H](O)[C@H](O)CO [D-mannose],A new substance is formed exclusively in the complete reaction medium. It is D-mannose-6-phosphate.
